Values quoted from earlier work, collected in US20030171386A1, “Small molecules for the treatment of abnormal cell growth” (Pfizer Inc., priority 2001, published 2003).

Settings: cited from earlier work; for dermal toxicity (rash): clinical trials, patients

Substance | dermal toxicity (rash) | "Black Box" warning (marketed antibody)
C-225: Imclone's tailor-made anti-erbB1 monoclonal antibody [Example C-225] | a similar rash was reported | –
HERCEPTIN: Genentech's tailor-made monoclonal antibody for the erbB2 receptor tyrosine kinase | no rash was observed | cardiomyopathy and hypersensitivity reactions including anaphylaxis
